Like-named read-outs stand apart in the source and are kept apart here.
Target: MASP-2 (CCP1-CCP2-SP) (Homo sapiens, UniProt O00187)
Assay: Enzymatic Assay for MASP-2
Settings: read-out: MASP-2 Ki, fluorogenic substrate based on C2 cleavage site, room temperature, 20 mM HEPES pH 7.4
Experimental: Enzymatic Assay for MASP-2
The MASP-2 assay utilizes a fluorogenic substrate, based on the cleavage site for its natural substrate C2. The assay is run at room temperature in an assay buffer containing 20 mM HEPES, pH 7.4, 140 mM NaCl and 0.1% Tween 20. Assay parameters are adjusted such that the assay is linear with respect to time, enzyme, and substrate concentrations. Under these optimized assays conditions, IC50 values are equivalent to Ki values, except in a few cases of “tight binding” inhibitors. Cases of “tight binding” or possible “slow binding” inhibitors are handled by the methods described in Copeland R. A. (2013) Evaluation of Enzyme Inhibitors in Drug Discovery. 2nd Ed., John Wiley and Sons, Inc., Chapters 5-7.
The MASP-2 assay protocol is carried out as follows. Test compounds are serially diluted in DMSO and then 100 nL of each dilution is transferred to the assay plate(s). […] After 20 min at room temperature, 15 μL of a stop solution (0.1 M acetic acid) is added, mixed and the plates are read on a SpectraMax i3x Microplate Reader and exported as Excel files. Each assay plate included a “no inhibitor” (DMSO Only) control, a “no enzyme” control and a reference inhibitor control. % Activity values=100*(average test comp. fluorescence−average “no enzyme” fluorescence)/(average “DMSO only” fluorescence−average “no enzyme” fluorescence). […]

Amino acid sequences for entries named in this document (tags omitted). Residues count along the entry.
UniProt O00187, 445-686 limits assumed: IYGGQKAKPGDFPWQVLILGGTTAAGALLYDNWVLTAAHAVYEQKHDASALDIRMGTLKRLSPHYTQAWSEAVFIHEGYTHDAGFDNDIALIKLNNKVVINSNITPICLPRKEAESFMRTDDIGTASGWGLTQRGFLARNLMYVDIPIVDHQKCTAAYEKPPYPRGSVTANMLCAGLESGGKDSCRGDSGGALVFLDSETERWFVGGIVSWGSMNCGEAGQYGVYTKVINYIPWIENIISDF
UniProt O00187, 298-444 partner limits assumed: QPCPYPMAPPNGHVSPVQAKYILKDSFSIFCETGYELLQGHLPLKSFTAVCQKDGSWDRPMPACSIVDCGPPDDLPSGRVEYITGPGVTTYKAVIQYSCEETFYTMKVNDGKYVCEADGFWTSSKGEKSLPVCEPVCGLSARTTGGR

## CSc1ncc(NC(C)C)c(=O)n1CC(=O)NCc1cc2cnccc2[nH]1
  Ki: < 0.5 µM

## CC(C)Nc1ncc(NCC2(c3ccccc3)CCC2)c(=O)n1CC(=O)NCc1cc2cnccc2[nH]1
Tested form: 2TFA
  Ki: > 10 µM
